# How the values were obtained:
# [1] = mouse serum, 37° C.
# [2] = system: central or peripheral opioid receptors; assay: Opioid receptor blockade with naloxone or naloxone methiodide before agonist, Hargreaves test; type: in vivo, Sprague-Dawley rats; conditions: 10 min after morphine 1 mg/kg; NaI 0.5 mg/kg s.c. 15 min before
structure (smiles),measurement,setting,value
"CC(C)=CCC/C(C)=C/CC/C(C)=C/CC/C=C(\C)CC/C=C(\C)CCC(=O)NC(Cc1ccc(O)cc1)C(=O)NCC(=O)NCC(=O)NC(Cc1ccccc1)C(=O)NC(CC(C)C)C(=O)O (stereo not drawn) [LENK-SQ-Am, Leu-enkephalin-squalene Bioconjugate with Amide Spacer]",release of free LENK peptide,[1],no peptide was released
"CC(C)=CCC/C(C)=C/CC/C(C)=C/CC/C=C(\C)CC/C=C(\C)CCCOC(=O)COCC(=O)NC(Cc1ccc(O)cc1)C(=O)NCC(=O)NCC(=O)NC(Cc1ccccc1)C(=O)NC(CC(C)C)C(=O)O (stereo not drawn) [LENK-SQ-Dig, Leu-enkephalin-squalene Bioconjugate with diglycolic Spacer]",time of maximum release of the peptide still attached to its linker,[1],45 min
CN1CC[C@]23c4c5ccc(O)c4O[C@H]2[C@@H](O)C=C[C@H]3[C@H]1C5 [morphine],PWL after NaI pre-administration,[2],3.20 ± 0.59 s

# Reference: patent US11590232B2, “Bioconjugates of neuropeptides derivatives” (CENTRE NATIONAL DE LA RECHERCHE SCIENTIFIQUE, priority 2018, dated 2023)
